Source: US11560358B2, “Resveratrol-piperazine co-crystals” (LETAVIS AB, priority 2018, dated 2023)

How the values were obtained:
[1] = Solubility and dissolution rate of curcumin and curcumin-piperazine co-crystal, Form 2, in water (μDISS Profiler); conditions: 120 minutes
Method: In situ dissolution experiments were performed with a μDISS Profiler apparatus (pION Inc., MA, USA). The system consists of an integrated diode array spectrophotometer connected to a fiber optic UV probe located directly in the reaction vessel (20 ml scintillation vial) and measures the concentration as a function of time, without filtering the solution. Measurement of the dissolution kinetics was carried out at 220 nm and 270 nm, which are optimal for the UV detection of resveratrol and […], respectively. The concentrations of the compounds in the dissolution media (water, buffer pH=4, pH=6) were calculated by means of a standard curve.

[2] = 40° C., 75% relative humidity for at least 1 week
Source text: The small intestine is made up by duodenum, jejunum and ileum. In humans, the pH is rapidly changes from highly acidic in the stomach to about pH 6 in the duodenum. The pH gradually increases in the small intestine from pH 6 to about pH 7.4 in the terminal ileum.

[3] = Visual observation of equal powder amounts suspended in water

Substance | solubility in water ([1]; 1 mg/ml in water, FIG. 15, FIG. 16) | change of solubility over time ([1]; water, FIG. 15) | physical stability on storage under accelerated conditions [2] | aqueous solubility by visual observation [3]
curcumin-piperazine co-crystal, Form 2 | significantly increased solubility in comparison with curcumin | diminish gradually over time | – | –
curcumin-piperazine co-crystal, Form 1 | – | – | physically stable | increased aqueous solubility compared to curcumin
